Reference: ChEMBL document CHEMBL1123906, “Folate analogues. 30. Synthesis and biological evaluation of N10-propargyl-5,8-dideaza-5,6,7,8-tetrahydrofolic acid and related compounds” (J Med Chem, 1987)

Test system: Thymidylate synthase (Bos taurus)
Experiment: Inhibition of Calf thymus thymidylate synthase in the presence of 20 uM

SMILES: CN(CC1CCc2nc(N)nc(O)c2C1)c1ccc(C(=O)NC(CCC(=O)O)C(=O)O)cc1 (stereo unspecified)
- inhibition: 50%
